Measured values reported in US20240425496A1, “AZETIDINYL PYRIMIDINES AND USES THEREOF” (Aerie Pharmaceuticals, Inc., priority 2021, published 2024).

Protein sequences, listed by entry. Tags and fused reporters are not part of them.
UniProt P29597, whole entry: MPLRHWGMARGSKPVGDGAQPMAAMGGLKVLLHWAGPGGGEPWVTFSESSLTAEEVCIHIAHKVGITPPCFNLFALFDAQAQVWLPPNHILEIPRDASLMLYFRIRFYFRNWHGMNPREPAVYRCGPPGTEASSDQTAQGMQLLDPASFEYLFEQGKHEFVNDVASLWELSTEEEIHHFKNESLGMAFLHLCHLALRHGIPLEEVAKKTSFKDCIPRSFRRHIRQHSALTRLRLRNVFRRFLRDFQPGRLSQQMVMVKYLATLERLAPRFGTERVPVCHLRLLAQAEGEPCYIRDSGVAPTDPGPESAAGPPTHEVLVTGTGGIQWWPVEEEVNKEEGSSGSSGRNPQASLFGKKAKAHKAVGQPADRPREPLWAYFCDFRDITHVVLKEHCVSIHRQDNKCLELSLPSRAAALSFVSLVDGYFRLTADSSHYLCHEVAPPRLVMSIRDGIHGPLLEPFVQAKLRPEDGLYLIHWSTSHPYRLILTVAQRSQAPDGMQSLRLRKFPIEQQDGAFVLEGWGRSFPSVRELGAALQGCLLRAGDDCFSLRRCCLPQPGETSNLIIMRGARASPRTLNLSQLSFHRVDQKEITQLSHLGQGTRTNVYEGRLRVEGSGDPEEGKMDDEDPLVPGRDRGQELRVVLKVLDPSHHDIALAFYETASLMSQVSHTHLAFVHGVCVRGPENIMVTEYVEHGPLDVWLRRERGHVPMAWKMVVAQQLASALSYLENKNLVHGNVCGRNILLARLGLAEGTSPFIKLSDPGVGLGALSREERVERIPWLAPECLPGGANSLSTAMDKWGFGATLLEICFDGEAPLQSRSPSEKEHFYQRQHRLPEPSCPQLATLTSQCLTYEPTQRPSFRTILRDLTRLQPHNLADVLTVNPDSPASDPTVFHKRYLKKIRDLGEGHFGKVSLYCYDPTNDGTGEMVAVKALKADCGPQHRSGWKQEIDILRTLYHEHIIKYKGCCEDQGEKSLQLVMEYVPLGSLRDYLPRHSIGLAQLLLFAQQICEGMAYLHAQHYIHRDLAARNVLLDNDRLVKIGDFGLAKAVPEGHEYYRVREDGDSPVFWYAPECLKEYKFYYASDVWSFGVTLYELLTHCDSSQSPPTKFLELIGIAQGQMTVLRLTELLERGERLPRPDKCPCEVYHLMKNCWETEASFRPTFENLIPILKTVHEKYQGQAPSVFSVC
UniProt P23458, whole entry: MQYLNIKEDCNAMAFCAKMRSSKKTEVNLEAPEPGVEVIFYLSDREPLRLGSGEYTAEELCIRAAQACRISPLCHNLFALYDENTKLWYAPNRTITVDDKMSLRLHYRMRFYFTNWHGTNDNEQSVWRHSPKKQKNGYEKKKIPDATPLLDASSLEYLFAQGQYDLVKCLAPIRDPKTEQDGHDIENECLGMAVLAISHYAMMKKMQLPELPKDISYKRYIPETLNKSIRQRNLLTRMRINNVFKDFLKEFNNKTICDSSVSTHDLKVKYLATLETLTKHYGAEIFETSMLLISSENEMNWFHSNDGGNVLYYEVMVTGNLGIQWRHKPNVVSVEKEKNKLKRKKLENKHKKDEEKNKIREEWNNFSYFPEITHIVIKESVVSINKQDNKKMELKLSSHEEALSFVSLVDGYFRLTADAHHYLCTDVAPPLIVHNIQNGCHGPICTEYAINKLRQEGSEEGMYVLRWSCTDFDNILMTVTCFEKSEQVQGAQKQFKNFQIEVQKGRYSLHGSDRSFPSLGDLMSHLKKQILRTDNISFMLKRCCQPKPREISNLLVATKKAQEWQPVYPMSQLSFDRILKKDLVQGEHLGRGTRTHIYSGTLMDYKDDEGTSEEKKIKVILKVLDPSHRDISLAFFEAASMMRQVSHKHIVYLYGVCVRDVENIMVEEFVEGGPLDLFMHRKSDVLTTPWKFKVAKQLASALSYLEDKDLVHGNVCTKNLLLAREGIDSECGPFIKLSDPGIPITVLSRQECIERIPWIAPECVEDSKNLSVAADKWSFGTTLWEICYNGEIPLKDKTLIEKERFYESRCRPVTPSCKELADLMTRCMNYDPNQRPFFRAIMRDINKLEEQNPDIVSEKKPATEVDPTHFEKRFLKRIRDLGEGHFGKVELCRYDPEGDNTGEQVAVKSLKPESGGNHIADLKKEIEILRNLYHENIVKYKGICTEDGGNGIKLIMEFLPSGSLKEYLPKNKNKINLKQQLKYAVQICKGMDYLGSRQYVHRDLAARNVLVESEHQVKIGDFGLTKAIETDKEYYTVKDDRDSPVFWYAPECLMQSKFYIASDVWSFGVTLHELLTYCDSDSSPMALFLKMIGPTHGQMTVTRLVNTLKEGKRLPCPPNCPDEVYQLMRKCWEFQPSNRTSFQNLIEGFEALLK

How the values were obtained:
[1] = target: TYK2 (Homo sapiens (Human), UniProt P29597); assay: JAK kinase assay (KINASE-GLO luminescent), TYK2 enzyme; format: biochemical; conditions: read-out: IC50 TYK2; TYK2 enzyme 10 nM, Abl peptide substrate
[2] = target: JAK1 (Homo sapiens (Human), UniProt P23458); assay: JAK kinase assay (KINASE-GLO luminescent), JAK1 enzyme; format: biochemical; conditions: read-out: IC50 JAK1; JAK1 enzyme 10 nM, Abl peptide substrate

Structure (SMILES) | IC50 [1] [nM] | IC50 [2] [nM]
Cc1cnc(Nc2cnn(C)c2)nc1N1CC(CC#N)(N2CCN3CC4(CC4)C[C@H]3C2)C1 | < 20 | < 10
Cc1cnc(Nc2ccccc2)nc1N1CC(CC#N)(N2CCN(C)CC2)C1 | < 50 | < 100
